This note sets out measurements from BindingDB's records for doi:10.1021/jm00003a020 (University of Washington, 1995).

As a reminder, the pIC50 is the negative decadic logarithm of the IC50, by convention in mol/L. Higher therefore signals a low IC50.

A short description of the assay: Inhibitory concentration was determined against delta-opioid receptor using [3H]- DPDPE radioligand.

pIC50: −log10 of the molar value.

The molecule `Oc1ccc2c3c1O[C@H]1[C@@H](O)CC[C@@]4(O)[C@@H](C2)N(CC2CC2)CC[C@]314` [Naltrexone-6-alpha-ol] showed a pIC50 of 7.49.
